Assay results reported in patent US20250026723A1, “Cannabinoid Receptor Modulating Compounds” (THE UNITED STATES OF AMERICA, as represented by the …, priority 2021, published 2025).

By UniProt entry, the sequences of proteins in these tests, tags left out.
UniProt P21554, whole entry: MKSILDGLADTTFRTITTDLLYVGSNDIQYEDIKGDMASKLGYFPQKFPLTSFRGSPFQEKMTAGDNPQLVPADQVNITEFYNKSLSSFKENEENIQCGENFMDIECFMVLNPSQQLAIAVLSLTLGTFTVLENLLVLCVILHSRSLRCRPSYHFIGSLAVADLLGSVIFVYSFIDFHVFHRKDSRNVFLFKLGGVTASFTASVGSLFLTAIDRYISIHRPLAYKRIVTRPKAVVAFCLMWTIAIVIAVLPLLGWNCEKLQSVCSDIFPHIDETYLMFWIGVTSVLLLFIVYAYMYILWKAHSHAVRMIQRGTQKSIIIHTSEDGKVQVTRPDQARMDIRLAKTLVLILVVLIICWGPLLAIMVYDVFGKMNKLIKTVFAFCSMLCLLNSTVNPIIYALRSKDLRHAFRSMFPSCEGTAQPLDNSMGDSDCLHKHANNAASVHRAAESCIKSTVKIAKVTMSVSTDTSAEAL

What was measured:
CB1 [1] = biological target: T1, CB1 (Homo sapiens (Human), UniProt P21554); test: CB1 antagonism assay, red (cAMP) NOMAD biosensor, MPXNomad-CB1 HEK293 cells; settings: read-out: cAMP IC50
CB1 [2] = biological target: T1, CB1; test: CB1 antagonism assay, green (β-Arrestin) NOMAD biosensor, MPXNomad-CB1 HEK293 cells; settings: read-out: β-Arrestin IC50
[3] = biological target: cannabinoid receptor 1 (CB1R) (Homo sapiens (Human), UniProt P21554); test: CB1R binding affinity (inhibition constant Ki); settings: read-out: CB1R Ki

N#Cc1ccc(S(=O)(=O)N=C([Se]CC2CC2)N2CC(c3ccccc3)C(c3ccc(Cl)cc3)=N2)cc1 (stereo not shown)
IC50 (CB1 [1]): 0.056 µM
IC50 (CB1 [2]): 0.114 µM

COCCSC(=NS(=O)(=O)c1ccc(C#N)cc1)N1CC(c2ccccc2)C(c2ccc(Cl)cc2)=N1 (stereo not shown)
IC50 (CB1 [1]): 1.69 µM
IC50 (CB1 [2]): 1.16 µM

O=S(=O)(N=C([Se]CC1CC1)N1CC(c2ccccc2)C(c2ccc(Cl)cc2)=N1)c1ccc(C(F)(F)F)cc1 (stereo not shown)
IC50 (CB1 [1]): 0.023 µM
IC50 (CB1 [2]): 0.028 µM
Ki [3]: 0.012 µM
